For one molecule, IC50 results are on record in patent US20200345725A1, “Methods and Compositions for Treating Cancer” (Omeros Corporation, priority 2019, published 2020).

This experiment deals with T1, A2bR (Homo sapiens, UniProt P29275).
T1 construct: host or cells: HEK293
T1 sequence (P29275 1-332): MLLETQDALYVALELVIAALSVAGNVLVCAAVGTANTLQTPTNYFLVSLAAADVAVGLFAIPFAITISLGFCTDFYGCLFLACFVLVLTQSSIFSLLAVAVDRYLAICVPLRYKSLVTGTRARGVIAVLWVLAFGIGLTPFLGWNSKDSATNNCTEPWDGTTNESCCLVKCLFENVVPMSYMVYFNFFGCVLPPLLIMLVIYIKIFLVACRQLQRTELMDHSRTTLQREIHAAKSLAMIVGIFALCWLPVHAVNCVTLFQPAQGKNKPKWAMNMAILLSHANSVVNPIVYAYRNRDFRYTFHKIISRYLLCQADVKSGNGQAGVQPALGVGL
Nature of the experiment: Cre-luciferase reporter assay, HEK293 cells transfected with A2bR. The class given is cell-based. The conditions noted are these: overnight incubation; read-out: A2B (IC50 nM). On the technique in general: In a reporter assay the amount or activity of a reporter protein is the signal.

The term IC50 denotes the concentration that inhibits the measured activity by half. Regarding `CCCn1c(=O)c2[nH]c(-c3ccc(OCC(=O)Nc4ccc(C#N)cc4)cc3)nc2n(CCC)c1=O` [MRS-1754], the IC50 turned out to be 32 nM.
